Measured values taken from paper PMC4102417 (PLoS Neglected Tropical Diseases, 2014).

Key:
in vitro = assay type: cell-based, murine; conditions: mouse, 3T3 fibroblasts, separate assays separated by semicolons, read-out: Mammalian cell CC50
[1] = tested on: T. cruzi (Tulahuen strain)

Compound: COc1cc(NC(C)CCCN)c2ncccc2c1.O=P(O)(O)O.O=P(O)(O)O (stereo not drawn) [Primaquine, N-(5-aminopentan-2-yl)-6-methoxyquinolin-8-amine; bis(phosphoric acid)]
- CC50 at 72 h (in vitro): 7.9 µM
- Selectivity index [1]: 26.3
- T. cruzi EC50 / activity in words [1]: high nanomolar
